Source: patent US20090298073A1, “Kidney Toxicity Biomarkers” (priority 2006, published 2009)

Tests used:
male rats [1] = assay: BUN (blood urea nitrogen) in rats treated with kidney toxicants
male rats [2] = assay: Blood creatinine in rats treated with kidney toxicants
[3] = gentamicin 20 mg/Kg/Day, Day 15
[4] = gentamicin 80 mg/Kg/Day, Day 15
[5] = gentamicin 240 mg/Kg/Day, Day 3
[6] = gentamicin 240 mg/Kg/Day, Day 9

Gentamicin was tested, and the BUN (male rats [1]; gentamicin 20 mg/Kg/Day, Day 3) was 14.8 µg/mL, the BUN (male rats [1]; gentamicin 20 mg/Kg/Day, Day 9) was 15.2 µg/mL and the BUN (male rats [1]; [3]) was 15.4 µg/mL. It also gave a BUN (male rats [1]; gentamicin 80 mg/Kg/Day, Day 3) of 14.2 µg/mL, a BUN (male rats [1]; gentamicin 80 mg/Kg/Day, Day 9) of 15.6 µg/mL and a BUN (male rats [1]; [4]) of 18.6 µg/mL. For the same substance, the BUN (male rats [1]; [5]) was 18.4 µg/mL, the BUN (male rats [1]; [6]) was 100 µg/mL and the Creatinine (male rats [2]; gentamicin 20 mg/Kg/Day, Day 3) was 0.4 mg/dL. It also gave a Creatinine (male rats [2]; gentamicin 20 mg/Kg/Day, Day 9) of 0.4 mg/dL, a Creatinine (male rats [2]; [3]) of 0.42 mg/dL and a Creatinine (male rats [2]; gentamicin 80 mg/Kg/Day, Day 3) of 0.4 mg/dL. It also gave a Creatinine (male rats [2]; gentamicin 80 mg/Kg/Day, Day 9) of 0.5 mg/dL, a Creatinine (male rats [2]; [4]) of 0.54 mg/dL and a Creatinine (male rats [2]; [5]) of 0.42 mg/dL. The Creatinine (male rats [2]; [6]) was 2.65 mg/dL.
